# Read-outs that look alike come from different tables or passages of the source.
# Key:
# [1] = system: mitochondrial membrane potential
# [2] = system: cellular dehydrogenase activity; details: Conc 20 μM
compound,measurement,setting,value
Thimerosal [reference compound],cyt c,cytochrome c,−5.732
Cc1cc(C(C)(C)CC(C)(C)C)ccc1OCCOCC[N+](C)(C)Cc1ccccc1 [methylbenzethonium],cyt c,cytochrome c,−1.750
CC(=O)CCCCn1c(=O)c2c(ncn2C)n(C)c1=O [pentoxifylline],mitoOX,"mtOXPHOS transcripts; 20 μM, composite Z-score vs DMSO",−0.344
trisodium ethylenediamine tetracetate,cyt c,cytochrome c,0.392
amyleine,ROS,reactive oxygen species,1.284
same,mitoOX,mtOXPHOS transcripts,−0.344
same,cyt c,cytochrome c,−0.010
same,ΔΨm,[1],−0.888
CCC[C@@H]1C[C@@H](C(=O)N[C@@H]([C@H]2O[C@H](SC)[C@H](O)[C@@H](O)[C@H]2O)[C@H](C)Cl)N(C)C1 [clindamycin],cyt c,cytochrome c,−0.521
same,cyt c (composite Z-score vs DMSO mock-treated wells),cytochrome c,0.525
nonoxynol-9,cyt c,"cytochrome c; composite Z-score vs mock-treated (DMSO) wells, concentration of each compound in μM",0.189
C=C1CCC=C(C)C(=O)CC2C(C)CC12 (stereo not drawn) [15-norcaryophyllen-3-one],MTT,[2]; normalized composite Z-score vs mock-treated (DMSO) wells,−1.582
NCCCCN [putrescine],ΔΨm,[1],−0.888
CC(=O)[C@H]1CC[C@H]2[C@@H]3CC[C@H]4C[C@H](O)CC[C@]4(C)[C@H]3C(=O)C[C@]12C [alfaxalone],cyt c,cytochrome c,0.093
COC(=O)C[C@H]1C(C)(C)[C@@H](OC(C)=O)[C@@H]2CC3=C4CC(=O)O[C@@H](c5ccoc5)[C@]4(C)CC[C@@H]3[C@@]1(C)C2=O [fissinolide],MTT,[2]; composite Z-score vs mock-treated (DMSO) wells,−1.576
CC(=O)O[C@@H]1CC2C(C)(C)C=CC(=O)[C@]2(C)C2CC[C@@]3(C)[C@H](c4ccoc4)OC(=O)C4OC43[C@@]21C (stereo partly drawn) [isogedunin],ROS,"reactive oxygen species; composite Z-score vs mock-treated (DMSO) wells, Conc 20 μM",1.276
C[C@@H]1C[C@H]2[C@@H]3C[C@H](F)C4=CC(=O)C=C[C@]4(C)[C@@]3(F)[C@@H](O)C[C@]2(C)[C@@]1(O)C(=O)CO [flumethasone],cyt c (composite Z-score vs DMSO),cytochrome c,−0.073
CCn1cc(C(=O)O)c(=O)c2cc(F)c(N3CCN(C)CC3)cc21 [pefloxacine],cyt c,cytochrome c,0.113

# From patent publication US20090143279A1 (priority 2007, published 2009)
